Assay results published in PMC4381330, “Identification of a novel selective agonist of PPARγ with no promotion of adipogenesis and less inhibition of osteoblastogenesis” (Scientific Reports, 2015).

By UniProt entry, the sequences of proteins in these tests, tags left out. Residues count along the entry.
UniProt P37231, 238-503 limits assumed: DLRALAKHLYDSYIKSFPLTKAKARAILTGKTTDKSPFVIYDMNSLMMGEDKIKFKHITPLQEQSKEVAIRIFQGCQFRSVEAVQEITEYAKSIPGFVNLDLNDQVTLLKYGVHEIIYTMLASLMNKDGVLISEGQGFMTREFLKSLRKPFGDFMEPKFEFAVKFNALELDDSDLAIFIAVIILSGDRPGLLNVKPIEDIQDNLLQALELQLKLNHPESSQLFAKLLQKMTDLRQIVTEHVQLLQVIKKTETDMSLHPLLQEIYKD

Legend:
[1] = biological target: T1, human PPARγ-LBD (coactivator peptide recruitment) (Homo sapiens, UniProt P37231); assay: LanthaScreen TR-FRET coactivator peptide recruitment assay; assay type: biochemical; settings: compared with rosiglitazone
T1 construct: incubated with GST-fused human PPARγ-LBD, terbium-labeled anti-GST antibody; purchased Invitrogen

PPARδ = biological target: T2, PPARδ (Homo sapiens, UniProt Q03181); assay: Receptor-specific transactivation, GAL4-LBD reporter in HEK293T cells; assay type: cell-based; settings: 30 μM F12016
T2 construct: expressed in transfected cells; host or cells: HEK293T
T2 sequence (Q03181 211-439 limits assumed): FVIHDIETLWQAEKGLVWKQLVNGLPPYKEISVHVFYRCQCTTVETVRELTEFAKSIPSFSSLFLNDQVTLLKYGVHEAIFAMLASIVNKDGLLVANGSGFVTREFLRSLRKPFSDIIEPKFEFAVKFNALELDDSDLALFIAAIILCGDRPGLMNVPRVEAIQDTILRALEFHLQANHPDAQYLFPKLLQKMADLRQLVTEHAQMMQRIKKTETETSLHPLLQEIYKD

[2] = biological target: T3, CDK5-mediated phosphorylation of PPARγ at Ser273 (Homo sapiens, UniProt P37231); set-up: method as in PMID 20651683; settings: cited from earlier work
T3 construct: 0.5 μg purified PPARγ-LBD protein was incubated with 50 ng CDK5/p25 kinase (Millipore); Millipore (CDK5/p25 only)

Substance: 2-[2-(1, 2-dimethyl-1H-indol-3-yl)-2-oxo-acetylamino]-benzamide [Compound F12016]
- relative magnitude of PGC-1α recruitment [1]: half of rosiglitazone
- transactivation of PPARδ (PPARδ): no effects

Substance: MRL24
- inhibition of PPARγ phosphorylation at Ser273 compared with rosiglitazone [2]: at least equivalent inhibition
